The target in assay [1] is T1, Polyunsaturated fatty acid lipoxygenase ALOX15 (Oryctolagus cuniculus, UniProt P12530).
T1 sequence (P12530 whole entry): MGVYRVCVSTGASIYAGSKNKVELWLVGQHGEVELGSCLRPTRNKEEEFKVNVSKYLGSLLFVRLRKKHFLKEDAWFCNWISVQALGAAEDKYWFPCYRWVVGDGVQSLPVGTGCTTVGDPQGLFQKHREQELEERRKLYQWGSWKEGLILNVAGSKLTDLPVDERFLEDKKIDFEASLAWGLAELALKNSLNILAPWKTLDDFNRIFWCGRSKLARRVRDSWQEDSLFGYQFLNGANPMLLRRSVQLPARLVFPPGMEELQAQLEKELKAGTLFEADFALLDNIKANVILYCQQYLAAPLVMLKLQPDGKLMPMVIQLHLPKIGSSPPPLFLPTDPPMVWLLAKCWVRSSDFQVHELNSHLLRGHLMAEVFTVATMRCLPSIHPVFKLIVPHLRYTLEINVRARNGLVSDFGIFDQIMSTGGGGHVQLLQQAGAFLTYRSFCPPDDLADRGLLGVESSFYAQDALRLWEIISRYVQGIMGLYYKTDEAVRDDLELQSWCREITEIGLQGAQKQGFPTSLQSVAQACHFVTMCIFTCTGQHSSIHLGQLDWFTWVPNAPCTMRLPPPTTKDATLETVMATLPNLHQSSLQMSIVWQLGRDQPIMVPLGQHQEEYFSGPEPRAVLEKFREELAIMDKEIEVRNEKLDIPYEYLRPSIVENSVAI
Nature of the assay: Inhibitory concentration against rabbit reticulocyte 15-lipoxygenase with substrate arachidonic acid. The method in brief:
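Purified rabbit reticulocyte 15-LO, isolated from phenylhydrazine-treated rabbits, with arachidonic acid as the substrate. IC50 comes from a colorimetric read-out in which the 15-HPETE product oxidizes Fe²⁺ under mildly acidic conditions. Many values were also verified by the spectrophotometric diene-formation rate (A₂₃₄).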

The target in assay [2] is T1, Polyunsaturated fatty acid lipoxygenase ALOX15. Kind of assay: Inhibitory concentration against isolated rabbit reticulocyte 15-lipoxygenase measured in the presence of linoleic acid. The essentials: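 15-LO was purified from reticulocytes of phenylhydrazine-treated rabbits. Linoleic acid was the substrate. In a colorimetric assay, the 13-HPODE product oxidizes Fe²⁺ under mildly acidic conditions, and IC50 is derived from this. Many values were also checked spectrophotometrically by the rate of diene formation (A₂₃₄).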

The structures appear in SMILES notation.

Regarding `CCCCCc1ccc(S(=O)(=O)NCCc2c(-c3cc4ccccc4o3)[nH]c3ccccc23)cc1`, the IC50 in assay [1] stood at 21 nM; in assay [2] it was 6 nM.

For orientation: IC50 means the concentration that gives 50% inhibition.

Source of the values: ChEMBL document CHEMBL1142013, “Tryptamine and homotryptamine-based sulfonamides as potent and selective inhibitors of 15-lipoxygenase” (Bioorg Med Chem Lett, 2005).
